Data from US4740502A, “Semisynthetic erythromycin antibiotics” (Abbott Laboratories, priority 1986, dated 1988).
Converted amounts (≈) assume the structure as drawn.

How the values were obtained:
[1] = system: Staph. aureus 45; assay: microbe, parasite or virus in culture; settings: Staphylococcus aureus, 45, 22 h
[2] = system: Staph. aureus 45 RAR 2; assay: microbe, parasite or virus in culture; settings: Staphylococcus aureus, 45RAR2, 22 h

## CC[C@H]1OC(=O)[C@H](C)[C@@H](O[C@H]2C[C@@](C)(OC)[C@@H](OC(N)=O)[C@H](C)O2)[C@H](C)[C@@H](O[C@@H]2O[C@H](C)C[C@H](N(C)C)[C@H]2O)[C@](C)(OC)C[C@@H](C)C(=O)[C@H](C)[C@@H](O)[C@]1(C)O [Example 1, 6-O-methyl-erythromycin A-4"-carbamate]
[1]
  MIC: 0.02 µg/mL (≈ 0.0253 µM)
[2]
  MIC: 0.05 µg/mL (≈ 0.0632 µM)
